Data reported in patent US20040019027A1, “Method of treating cerebrotendinous xanthomatosis” (priority 2002, published 2004).

Target: T1, human PXR (Homo sapiens, UniProt O75469)
T1 sequence (O75469 107-434 limits assumed): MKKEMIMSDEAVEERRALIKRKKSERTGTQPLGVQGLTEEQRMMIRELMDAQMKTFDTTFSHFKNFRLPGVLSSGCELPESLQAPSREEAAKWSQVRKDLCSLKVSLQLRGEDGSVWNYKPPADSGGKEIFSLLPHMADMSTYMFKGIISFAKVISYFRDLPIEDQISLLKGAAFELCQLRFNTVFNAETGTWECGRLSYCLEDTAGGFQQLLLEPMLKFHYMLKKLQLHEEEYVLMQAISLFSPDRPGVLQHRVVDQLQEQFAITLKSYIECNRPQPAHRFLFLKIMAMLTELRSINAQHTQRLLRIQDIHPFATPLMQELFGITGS
Assay: GAL-human PXR luciferase reporter gene assay in transfected CV-1 cells
Details: 2.5 μM hyperforin, 10 μM other ligands, FIG. 8(a)
Text: For mouse PXR, the data are plotted as percent of maximal foldactivation achieved with pregnenolone-16α-carbonitrile (PCN). […] Experimental conditions were as in FIG. 8(a) using human PXR.
5β-cholestane-3α, 7α, 12α-triol and 5β-cholestane-3α, 7α, 12α, 25-tetrol are endogenous CYP3A substrates in both human and mouse liver. Furster & Wikvall, Identification of CYP3A4 as the Major Enzyme Responsible for 25-Hydroxylation of 5β-cholestane-3α, 7α, 12α-triol in Human Liver Microsomes, Biochim. Biophys. […] Briefly, a cytomegalovirus expression vector was used to express Gal-PXR fusion proteins. […] Reporter plasmids were constructed by synthesizing three copy response elements that bind to the Gal4 DNA biding domain and subcloned into the transcriptional regulatory region of luciferase reporter gene. β-galactosidase expression vector pCH110, used as internal control, was obtained from Amersham Pharmacia Biotech. CV-1 cells were plated in 96-well plates at a density of 20,000 cells per well and maintained in DMEM supplemented with 10% charcoal/dextran treated calf bovine serum. […] Reporter gene expression was normalized to the b-galactosidase transfection control and expressed as relative light units per OD per minute of β-galactosidase activity or fold induction over solvent control.

hyperforin
activation of GAL-human PXR (in words): fully activated; also recorded: maximally activates

“Also recorded” adds a separate entry of the source.
